For test [1], the target named is Delta-type opioid receptor (Mus musculus, UniProt P32300). As to the kind of experiment: Binding affinity to mouse DOPR expressed in CHO cells.
The next test has as its target Mu-type opioid receptor (Rattus norvegicus, UniProt P33535). Put plainly: Binding affinity to rat MOPR expressed in CHO cells.

Chains of the proteins cited; added tags and fusions are not shown.
UniProt P32300, whole entry, looked up: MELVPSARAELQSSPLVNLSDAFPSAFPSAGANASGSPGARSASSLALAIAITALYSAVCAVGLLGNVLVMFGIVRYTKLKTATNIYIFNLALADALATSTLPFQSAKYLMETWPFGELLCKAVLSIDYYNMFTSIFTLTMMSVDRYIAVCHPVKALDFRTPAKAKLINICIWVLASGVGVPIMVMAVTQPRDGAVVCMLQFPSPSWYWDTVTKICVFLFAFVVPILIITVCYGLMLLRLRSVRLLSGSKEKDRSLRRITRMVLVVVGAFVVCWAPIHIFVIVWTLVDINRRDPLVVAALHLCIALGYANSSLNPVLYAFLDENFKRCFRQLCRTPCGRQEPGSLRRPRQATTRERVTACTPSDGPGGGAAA
UniProt P33535, whole entry, looked up: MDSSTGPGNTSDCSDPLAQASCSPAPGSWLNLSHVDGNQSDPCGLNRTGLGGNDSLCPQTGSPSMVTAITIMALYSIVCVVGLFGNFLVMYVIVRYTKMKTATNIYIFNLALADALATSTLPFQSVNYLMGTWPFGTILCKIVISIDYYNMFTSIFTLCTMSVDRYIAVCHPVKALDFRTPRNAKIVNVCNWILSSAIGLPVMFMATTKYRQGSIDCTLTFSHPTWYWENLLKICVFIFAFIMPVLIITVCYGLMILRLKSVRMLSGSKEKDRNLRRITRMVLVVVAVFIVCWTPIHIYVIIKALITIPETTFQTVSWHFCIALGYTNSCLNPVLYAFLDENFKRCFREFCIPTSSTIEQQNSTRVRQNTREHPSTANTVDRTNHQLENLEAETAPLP

One molecule from BindingDB's records for 19147366 can be followed below.

The term Ki denotes the dissociation constant of the complex between target and ligand, obtained from inhibition or displacement. A higher Ki goes with a looser hold on the target. As to `CN(C(=O)Cc1ccc(Cl)c(Cl)c1)[C@@H]1CCCC[C@H]1N1CCCC1`, the Ki (in test [1]; at Mu-type opioid receptor) was over 1000 nM each time.
